By UniProt entry, the sequences of proteins in these tests, tags left out.
UniProt P35218, whole entry, looked up: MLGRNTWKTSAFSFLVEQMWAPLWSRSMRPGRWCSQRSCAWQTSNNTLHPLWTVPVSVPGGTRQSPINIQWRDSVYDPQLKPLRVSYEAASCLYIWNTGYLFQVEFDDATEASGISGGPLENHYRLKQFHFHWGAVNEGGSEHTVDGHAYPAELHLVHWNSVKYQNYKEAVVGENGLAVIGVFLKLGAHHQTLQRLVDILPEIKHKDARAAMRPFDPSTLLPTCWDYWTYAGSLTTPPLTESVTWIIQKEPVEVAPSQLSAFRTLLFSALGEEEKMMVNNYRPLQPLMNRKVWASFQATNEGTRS
UniProt P22748, whole entry, looked up: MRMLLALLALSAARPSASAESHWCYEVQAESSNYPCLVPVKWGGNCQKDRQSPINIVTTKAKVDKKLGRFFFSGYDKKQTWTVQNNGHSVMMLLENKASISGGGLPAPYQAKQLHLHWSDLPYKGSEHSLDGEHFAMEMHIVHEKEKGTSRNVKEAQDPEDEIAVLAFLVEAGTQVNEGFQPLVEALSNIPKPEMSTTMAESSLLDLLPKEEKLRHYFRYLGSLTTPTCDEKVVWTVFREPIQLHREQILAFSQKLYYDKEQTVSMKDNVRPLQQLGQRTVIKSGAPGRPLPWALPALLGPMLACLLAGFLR

According to BindingDB's records for 15745821:

Legend:
[1] = target: Carbonic anhydrase 9 (Homo sapiens, UniProt Q16790)
[2] = target: Carbonic anhydrase 5A, mitochondrial (Homo sapiens, UniProt P35218)
[3] = target: Carbonic anhydrase 4 (Homo sapiens, UniProt P22748)

## CP(=O)(O)O
[1]
  Ki: 1260 µM
[2]
  Ki: 110 µM
[3]
  Ki: 310 µM
